Apparent affinities of Ab-14 variants for a coronavirus HR2 peptide

From the AlphaSeq antibody data of Li et al. 2023 (doi:10.1038/s41467-023-39022-2), copy in the FLAb collection.

Antigen: PDVDLGDISGINAS, a 14-residue peptide of the SARS-CoV-2 spike HR2 region.

The variants keep the heavy chain, the linker and the frameworks of Ab-14 (scFv order VH, the linker GGGGSGGGGSGGGGS, VL).
VH: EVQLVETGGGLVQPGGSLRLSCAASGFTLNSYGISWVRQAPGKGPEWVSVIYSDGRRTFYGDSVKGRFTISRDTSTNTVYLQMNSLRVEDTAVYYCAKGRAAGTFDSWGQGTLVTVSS
VL: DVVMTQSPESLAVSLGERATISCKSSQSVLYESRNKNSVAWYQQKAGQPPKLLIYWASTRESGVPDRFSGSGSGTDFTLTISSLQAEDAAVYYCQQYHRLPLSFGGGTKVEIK

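This is the validation round: designs drawn from the data on random variants, tested in the same kind of assay. Their group label is 14L_GP_Gen (GP: Gaussian process model; Gen: genetic algorithm; a sequence that several methods proposed may carry one label only). The scFvs were displayed on barcoded MATa yeast, the peptide on MATalpha yeast. Binding brings cells together so that they mate, and sequencing counts the barcode pairs among the diploids. Each replicate has its own calibration line, from reference interactions of the BCL2 family. Mating was done six times.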

Each variant is given by its three light chain CDRs, as the data file delimits them; those of the parent are KSSQSVLYESRNKNSVA, WASTRES, QQYHRLPLS. The read-out is the apparent dissociation constant on a log10 scale (nM): the lower, the stronger. Averages over replicates are reported, and they cover detected replicates only. The parent sequence was in this pool as ten entries: three were never detected, three once, and four in most replicates, with averages from 0.34 to 2.37.

{"CDR-L1": "KVSQSQLYESRNKNSVA", "CDR-L2": "NASTRES", "CDR-L3": "QDYHRLPLS", "replicates, log10 nM": "0.21 0.15 0.13 -0.06 -0.19 0.07", "mean log10 Kd (nM)": "0.05", "control signals": "0/18"}
{"CDR-L1": "KVSQSVLYESRNKNAVA", "CDR-L2": "DASQRES", "CDR-L3": "QQYHRLPLS", "replicates, log10 nM": "-0.31 -0.28 -0.38 -0.53 -0.46 -0.15", "mean log10 Kd (nM)": "-0.35", "control signals": "0/18"}
{"CDR-L1": "KVSQSVMYESRNKNSVA", "CDR-L2": "DASTRES", "CDR-L3": "QQYHRLPLS", "replicates, log10 nM": "-0.30 -0.25 -0.60 -0.48 -0.41 -0.59", "mean log10 Kd (nM)": "-0.44", "control signals": "0/18"}
{"CDR-L1": "KFSQSVLYESRNKNSVA", "CDR-L2": "EASQRES", "CDR-L3": "QQYHRLPLS", "replicates, log10 nM": "-0.14 0.01 -0.22 -0.09 -0.12 -0.32", "mean log10 Kd (nM)": "-0.15", "control signals": "0/18"}
{"CDR-L1": "KLPQSELYESRNKNSVA", "CDR-L2": "EASTRED", "CDR-L3": "QQYHRLPLS", "replicates, log10 nM": "-0.37 -0.58 -0.50 -0.22 -0.44 -0.21", "mean log10 Kd (nM)": "-0.39", "control signals": "0/18"}
{"CDR-L1": "KLSQSTLYESRNKNSVA", "CDR-L2": "NASTREM", "CDR-L3": "QQYHRLPLS", "replicates, log10 nM": "0.14 0.27 0.18 -0.08 0.01 0.23", "mean log10 Kd (nM)": "0.12", "control signals": "0/18"}
{"CDR-L1": "KLSPSYLYESRNKNSVA", "CDR-L2": "NASTRES", "CDR-L3": "QQYHRLPLS", "replicates, log10 nM": "-0.46 0.29 0.38 -0.30 -0.01 0.05", "mean log10 Kd (nM)": "-0.01", "control signals": "1/18 (2.91)"}
{"CDR-L1": "KLSQSMLYESRNKNSVA", "CDR-L2": "NASQREE", "CDR-L3": "QQYHRLPLS", "replicates, log10 nM": "0.25 -0.19 -0.11 -0.05 -0.24 0.02", "mean log10 Kd (nM)": "-0.05", "control signals": "0/18"}
{"CDR-L1": "KLSQSVLYESRNSNNVA", "CDR-L2": "HASTRES", "CDR-L3": "QQYHRLPLS", "replicates, log10 nM": "-0.21 -0.43 -0.58 -0.64 -0.49 -0.43", "mean log10 Kd (nM)": "-0.46", "control signals": "2/18 (3.06)"}
{"CDR-L1": "KVQQSHLYESRNKNSVA", "CDR-L2": "NASTRCS", "CDR-L3": "QQYHRLPLS", "replicates, log10 nM": "0.50 0.30 0.36 0.15 0.37 0.24", "mean log10 Kd (nM)": "0.32", "control signals": "1/18 (2.82)"}
{"CDR-L1": "KLSQSQLYESRMKNSVA", "CDR-L2": "NASTRED", "CDR-L3": "QQYHRLPLS", "replicates, log10 nM": "0.42 0.57 0.12 0.02 0.31 0.47", "mean log10 Kd (nM)": "0.32", "control signals": "0/18"}
{"CDR-L1": "KLSQSVLYEDRNKNAVA", "CDR-L2": "NASQRES", "CDR-L3": "QQYHRLPLS", "replicates, log10 nM": "0.24 -0.02 -0.19 -0.13 -0.10 -0.06", "mean log10 Kd (nM)": "-0.04", "control signals": "1/18 (1.95)"}
{"CDR-L1": "KLSQSCLYESRNKNSVA", "CDR-L2": "EASTRES", "CDR-L3": "QQYHRLPLS", "replicates, log10 nM": "0.48 0.22 0.28 0.20 0.23 0.53", "mean log10 Kd (nM)": "0.32", "control signals": "0/18"}
{"CDR-L1": "KLSQSVPYESRNKNSVA", "CDR-L2": "NASTREE", "CDR-L3": "QQYHRLPLS", "replicates, log10 nM": "0.19 0.18 0.05 -0.12 0.06 0.26", "mean log10 Kd (nM)": "0.11", "control signals": "1/18 (3.24)"}
{"CDR-L1": "KFYQSYLYESRNKNSVA", "CDR-L2": "NASTRES", "CDR-L3": "QQYHRLPLS", "replicates, log10 nM": "-0.49 -0.52 -0.45 -0.76 -0.57 -0.29", "mean log10 Kd (nM)": "-0.51", "control signals": "1/18 (1.93)"}
{"CDR-L1": "KVSQSQLYESRNKNSVA", "CDR-L2": "NASTRCS", "CDR-L3": "QQYHRLPLS", "replicates, log10 nM": "0.03 0.16 0.10 0.02 0.13 0.09", "mean log10 Kd (nM)": "0.09", "control signals": "0/18"}
{"CDR-L1": "KLDQSELYESRNKNSVA", "CDR-L2": "NASQRLS", "CDR-L3": "QQYHRLPLS", "replicates, log10 nM": "0.73 0.94 0.64 0.21 0.80 0.87", "mean log10 Kd (nM)": "0.70", "control signals": "1/18 (1.58)"}
{"CDR-L1": "KLEESVLYESRNKNSVA", "CDR-L2": "NASTRES", "CDR-L3": "QQYHRLPLS", "replicates, log10 nM": "0.12 -0.22 -0.22 -0.25 -0.24 -0.04", "mean log10 Kd (nM)": "-0.14", "control signals": "1/18 (2.85)"}
{"CDR-L1": "KLDQSVLYESRNKNSVA", "CDR-L2": "NASTRCS", "CDR-L3": "QQYHRLPLS", "replicates, log10 nM": "0.19 0.09 -0.10 0.07 -0.06 0.12", "mean log10 Kd (nM)": "0.05", "control signals": "2/18 (2.81)"}
{"CDR-L1": "KLPQSMLYESRNKNAVA", "CDR-L2": "NASTRES", "CDR-L3": "QQYHRLPLS", "replicates, log10 nM": "-0.20 -0.32 -0.34 -0.45 -0.34 -0.11", "mean log10 Kd (nM)": "-0.29", "control signals": "3/18 (3.52)"}
{"CDR-L1": "KLSQSWLYESRNKNSVA", "CDR-L2": "NASQRYS", "CDR-L3": "QQYHRLPLS", "replicates, log10 nM": "0.29 0.22 0.18 0.15 0.19 0.28", "mean log10 Kd (nM)": "0.22", "control signals": "5/18 (3.10)"}
{"CDR-L1": "KLVQSVLYESRNKNSVA", "CDR-L2": "NASQRES", "CDR-L3": "QQYHRLPLS", "replicates, log10 nM": "-0.13 -0.42 -0.38 -0.46 -0.39 -0.35", "mean log10 Kd (nM)": "-0.36", "control signals": "0/18"}
{"CDR-L1": "KLDQSWLYESRNKNSVA", "CDR-L2": "NASTRMS", "CDR-L3": "QQYHRLPLS", "replicates, log10 nM": "0.63 0.76 0.32 0.30 0.20 0.56", "mean log10 Kd (nM)": "0.46", "control signals": "1/18 (2.36)"}
{"CDR-L1": "KHSQSVLYESRNKNNVA", "CDR-L2": "DASTRES", "CDR-L3": "QQYHRLPLS", "replicates, log10 nM": "-0.20 -0.16 -0.31 -0.40 -0.43 0.00", "mean log10 Kd (nM)": "-0.25", "control signals": "1/18 (2.64)"}
{"CDR-L1": "KVSQSNLYESRNKNSVA", "CDR-L2": "NASTRES", "CDR-L3": "QQYHRLPLQ", "replicates, log10 nM": "-0.19 -0.29 -0.33 -0.54 -0.44 -0.30", "mean log10 Kd (nM)": "-0.35", "control signals": "0/18"}

The 3 strongest on average among those seen in every replicate, once more:

{"CDR-L1": "KFYQSYLYESRNKNSVA", "CDR-L2": "NASTRES", "CDR-L3": "QQYHRLPLS", "replicates, log10 nM": "-0.49 -0.52 -0.45 -0.76 -0.57 -0.29", "mean log10 Kd (nM)": "-0.51", "control signals": "1/18 (1.93)"}
{"CDR-L1": "KLSQSVLYESRNSNNVA", "CDR-L2": "HASTRES", "CDR-L3": "QQYHRLPLS", "replicates, log10 nM": "-0.21 -0.43 -0.58 -0.64 -0.49 -0.43", "mean log10 Kd (nM)": "-0.46", "control signals": "2/18 (3.06)"}
{"CDR-L1": "KVSQSVMYESRNKNSVA", "CDR-L2": "DASTRES", "CDR-L3": "QQYHRLPLS", "replicates, log10 nM": "-0.30 -0.25 -0.60 -0.48 -0.41 -0.59", "mean log10 Kd (nM)": "-0.44", "control signals": "0/18"}

Nonspecific signal, from three strains lacking the peptide, appeared in 4% of pairings of all light chain designs, centred on 2.64 (5% of these signals below 1.59); values are not corrected for it. For each scFv, signals with the empty controls are counted beside the result, with their mean in brackets. The range of this assay differs from that of the first round, and the authors advise against merging the two. The authors' rule: three or more of the six replicates give a measured affinity, fewer mean a poor binder.